The assay addresses D(2) dopamine receptor (Homo sapiens, UniProt P14416). In words: biochemical. It is filed as cell-based, CHO.

Amino acid sequences for entries named in this document (tags omitted).
UniProt P14416, whole entry: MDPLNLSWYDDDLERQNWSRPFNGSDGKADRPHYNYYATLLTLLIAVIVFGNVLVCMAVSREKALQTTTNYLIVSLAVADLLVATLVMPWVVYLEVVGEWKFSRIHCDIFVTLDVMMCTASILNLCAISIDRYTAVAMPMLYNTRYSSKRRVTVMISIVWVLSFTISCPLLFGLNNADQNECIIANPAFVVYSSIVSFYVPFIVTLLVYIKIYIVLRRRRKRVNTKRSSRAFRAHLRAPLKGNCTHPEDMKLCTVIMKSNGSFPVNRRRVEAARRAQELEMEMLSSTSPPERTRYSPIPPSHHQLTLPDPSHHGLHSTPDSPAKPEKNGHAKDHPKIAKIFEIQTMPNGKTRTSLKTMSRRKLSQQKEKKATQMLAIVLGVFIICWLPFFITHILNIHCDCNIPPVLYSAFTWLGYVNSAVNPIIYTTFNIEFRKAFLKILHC

A word on the Ki: it is a measure of affinity in units of concentration, obtained from inhibition or displacement. Read a low Ki as higher affinity.

SMILES strings stand for the structures.

On to `CCCN(CCC)[C@H]1CCc2c(O)cccc2C1`, for which the affinity, expressed as Ki, was 7.1 nM.

Source of the values: ChEMBL document CHEMBL3797035 (Bioorg Med Chem, 2016).
